Assay: Storage stability of concentrates at elevated temperatures
Conditions: pH indicator in agricultural concentrate with carbohydrate acids as pH modifying agent

Compound | stability of the pH indicator in the presence of carbohydrate acids / carbohydrate acid mixture
O=[N+]([O-])c1ccc([N+](=O)[O-])c(O)c1 | low stability
resorcin blue | low stability

From patent US9277747B2, “Agricultural composition comprising pH sensitive agricultural chemicals and organic pH buffer” (NUTRIAG LTD., priority 2010, dated 2016)
